Results on five compounds are retold here after patent US10851082B2, “Substituted aromatic n-heterocyclic compounds as inhibitors of mitogen-activated protein kinase interacting kinase 1 (MNK1) and 2 (MNK2)” (Northwestern University, priority 2015, dated 2020).

SMILES strings stand for the structures. Like-named read-outs stand apart in the source and are kept apart here.

Assay [1] concerns the target Mnk1 (Homo sapiens (Human), UniProt Q9BUB5). Kind of assay: Mnk1 kinase inhibition, ADP-Glo ADP monitoring assay. In kind it is biochemical. A general note: ADP-Glo first removes unused ATP, then detects ADP through luciferase.
For assay [2], the target named is Mnk1. The assay is described as follows: Cellular inhibition of Mnk1, flow cytometry of phospho-eIF-4E (Ser209), U937 cells. As to conditions: read-out: U937 pEIF4E IC50, phospho-eIF-4E Ser209, flow cytometry. It counts as cell-based. (In general: In flow cytometry, cells or beads pass a laser one at a time.)
Assay [3] concerns the target Mnk1. Kind of assay: Cellular inhibition of Mnk1, flow cytometry of phospho-eIF-4E (Ser209), MV4-11 cells. It counts as cell-based. As to conditions: read-out: MV4-11 pEIF4E IC50, phospho-eIF-4E Ser209, flow cytometry.

In general, IC50 refers to the concentration that gives 50% inhibition. Take `c1ccc2c(c1)ncn2-c1ccnc(NC2CCOC2)n1` (stereo not drawn) [NUCC-0125583]: the results for the IC50 in assay [1] (read-out: Mnk1 IC50), in assay [2] and in assay [3] were 40 nM, 5.5 nM and 7 nM, respectively. In the case of `c1ccc2c(c1)ncn2-c1ccnc(N[C@@H]2CCOC2)n1` [NUCC-0176149], the half-maximal inhibitory concentration (IC50) in assay [1] (read-out: Mnk1 IC50) worked out at 540 nM. With `N#Cc1cnc(-n2cnc3ccccc32)nc1NCCCc1ccncc1` [NUCC-0200914], in assay [1] (read-out: Mnk1 inhibition IC50 (+,++,+++)), the IC50 is less than 1000 nM. For the compound `c1ccc2c(c1)ncn2-c1ccnc(N[C@H]2CCOC2)n1` [NUCC-0176148], the half-inhibitory concentration (IC50) is 190 nM in assay [1] (read-out: Mnk1 IC50), 100 nM in assay [2] and 37 nM in assay [3]. As for `Brc1cnc(NCCc2ccncc2)nc1-n1ccnc1` [NUCC-0196229], the concentration for half-maximal inhibition (IC50) in assay [1] (unit inferred, read-out: Mnk1 IC50) worked out at 480 nM.
